Activity calls are given as the source filed them. No cut-off for these calls is given here.
Assays:
Type in all cases: cell-based
[1] = molecular target: Protein cereblon/Androgen receptor (Homo sapiens, UniProt P10275+Q96SW2); assay: Protac activity at CRBN/AR in human VCaP cells assessed as reduction in AR protein level at 100 nM measured after 3 hrs by western blot analysis
[2] = tested on: Protein cereblon/Androgen receptor (Homo sapiens), P10275+Q96SW2 [T878A]; assay: Protac activity at CRBN/AR T878A mutant in human LNCaP cells assessed as reduction in AR protein level at 100 nM measured after 6 hrs by western blot analysis
[3] = molecular target: Androgen receptor (Homo sapiens) (UniProt P10275); assay: Induction of AR degradation in human LNCaP cells at 100 nM treated for 3 hrs followed by treated with ARi-184 for 2 hrs
[4] = molecular target: Androgen receptor (Homo sapiens) (UniProt P10275); assay: Induction of AR degradation in human LNCaP cells at 100 nM treated for 3 hrs followed by treated with thalidomide for 2 hrs
[5] = molecular target: Androgen receptor (Homo sapiens) (UniProt P10275); assay: Induction of AR degradation in human LNCaP cells at 100 nM treated for 3 hrs followed by treated with MG132 for 2 hrs
[6] = molecular target: Androgen receptor (Homo sapiens) (UniProt P10275); assay: Induction of AR degradation in human LNCaP cells at 100 nM treated for 3 hrs followed by treated with MLN4924 for 2 hrs
[7] = molecular target: Androgen receptor (Homo sapiens) (UniProt P10275); assay: Induction of AR degradation in human VCaP cells at 100 nM treated for 3 hrs followed by treated with ARi-184 for 2 hrs
[8] = molecular target: Androgen receptor (Homo sapiens) (UniProt P10275); assay: Induction of AR degradation in human VCaP cells at 100 nM treated for 3 hrs followed by treated with thalidomide for 2 hrs
[9] = molecular target: Androgen receptor (Homo sapiens) (UniProt P10275); assay: Induction of AR degradation in human VCaP cells at 100 nM treated for 3 hrs followed by treated with MG132 for 2 hrs
[10] = molecular target: Androgen receptor (Homo sapiens) (UniProt P10275); assay: Induction of AR degradation in human VCaP cells at 100 nM treated for 3 hrs followed by treated with MLN4924 for 2 hrs

The chains behind the UniProt entries cited, without tags or fusion partners. Where a name states a change or a piece, a line headed by the entry shows the natural chain unless it says otherwise.
UniProt P10275: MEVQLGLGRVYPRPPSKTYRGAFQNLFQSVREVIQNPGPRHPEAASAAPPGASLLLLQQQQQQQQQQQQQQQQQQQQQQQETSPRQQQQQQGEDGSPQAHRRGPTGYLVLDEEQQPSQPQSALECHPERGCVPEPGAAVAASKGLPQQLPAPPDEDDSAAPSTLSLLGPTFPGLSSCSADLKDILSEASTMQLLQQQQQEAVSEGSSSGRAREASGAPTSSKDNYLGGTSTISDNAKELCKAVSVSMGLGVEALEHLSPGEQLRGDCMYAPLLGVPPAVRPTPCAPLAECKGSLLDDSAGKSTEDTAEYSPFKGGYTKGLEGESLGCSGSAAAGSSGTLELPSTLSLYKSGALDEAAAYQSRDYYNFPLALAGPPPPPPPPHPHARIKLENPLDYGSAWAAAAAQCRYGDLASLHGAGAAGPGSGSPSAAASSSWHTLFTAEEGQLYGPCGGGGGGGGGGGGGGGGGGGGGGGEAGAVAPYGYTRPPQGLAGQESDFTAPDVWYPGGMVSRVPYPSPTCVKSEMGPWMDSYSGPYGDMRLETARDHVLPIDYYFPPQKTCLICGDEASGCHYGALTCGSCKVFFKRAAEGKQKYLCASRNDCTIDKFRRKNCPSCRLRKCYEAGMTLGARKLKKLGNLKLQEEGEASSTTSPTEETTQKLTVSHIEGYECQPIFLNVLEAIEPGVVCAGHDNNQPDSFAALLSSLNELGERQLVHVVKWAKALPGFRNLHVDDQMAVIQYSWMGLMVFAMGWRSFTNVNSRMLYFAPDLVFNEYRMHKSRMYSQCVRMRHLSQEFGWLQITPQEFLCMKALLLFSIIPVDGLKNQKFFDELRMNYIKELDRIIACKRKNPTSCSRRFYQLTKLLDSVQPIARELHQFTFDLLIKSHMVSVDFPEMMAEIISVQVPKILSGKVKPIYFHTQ
UniProt Q96SW2: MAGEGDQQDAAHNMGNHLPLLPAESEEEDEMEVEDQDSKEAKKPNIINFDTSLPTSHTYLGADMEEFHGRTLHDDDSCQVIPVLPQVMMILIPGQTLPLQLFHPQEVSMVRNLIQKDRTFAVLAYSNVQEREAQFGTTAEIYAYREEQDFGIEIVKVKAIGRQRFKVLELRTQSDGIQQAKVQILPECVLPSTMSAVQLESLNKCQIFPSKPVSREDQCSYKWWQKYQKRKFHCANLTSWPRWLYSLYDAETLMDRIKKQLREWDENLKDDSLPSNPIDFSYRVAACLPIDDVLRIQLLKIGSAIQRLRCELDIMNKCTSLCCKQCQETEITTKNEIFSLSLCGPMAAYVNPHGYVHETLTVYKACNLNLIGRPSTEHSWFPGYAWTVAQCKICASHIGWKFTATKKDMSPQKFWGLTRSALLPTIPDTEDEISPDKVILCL

Structure (SMILES) | Activity [1] | Activity [2] | Activity [3] | Activity [4] | Activity [5] | Activity [6] | Activity [7] | Activity [8] | Activity [9] | Activity [10]
CC1(C)[C@H](NC(=O)c2ccc(N3CCN(CC4CN(c5ccc6c(c5)C(=O)N(C5CCC(=O)NC5=O)C6=O)C4)CC3)cc2)C(C)(C)[C@H]1Oc1ccc(C#N)c(Cl)c1 (stereo partly drawn) | Active | Active |  |  |  |  |  |  |  | 
CC1(C)[C@H](NC(=O)c2ccc(N3CCC(N4CCN(c5ccc6c(c5)C(=O)N(C5CCC(=O)NC5=O)C6=O)CC4)CC3)cc2)C(C)(C)[C@H]1Oc1ccc(C#N)c(Cl)c1 (stereo partly drawn) | Active | Active |  |  |  |  |  |  |  | 
CC1(C)[C@H](NC(=O)c2ccc(N3CCN(C4CCN(c5ccc6c(c5)C(=O)N(C5CCC(=O)NC5=O)C6=O)CC4)CC3)cc2)C(C)(C)[C@H]1Oc1ccc(C#N)c(Cl)c1 (stereo partly drawn) | Active | Active |  |  |  |  |  |  |  | 
CC1(C)[C@H](NC(=O)c2ccc(N3CCN(CC4CCN(c5ccc6c(c5)C(=O)N(C5CCC(=O)NC5=O)C6=O)CC4)CC3)cc2)C(C)(C)[C@H]1Oc1ccc(C#N)c(Cl)c1 (stereo partly drawn) | Active | Active | inactive | inactive | inactive | inactive | inactive | inactive | inactive | inactive
CC1(C)[C@H](NC(=O)c2ccc(N3CCC(CN4CCN(c5ccc6c(c5)C(=O)N(C5CCC(=O)NC5=O)C6=O)CC4)CC3)cc2)C(C)(C)[C@H]1Oc1ccc(C#N)c(Cl)c1 (stereo partly drawn) | Active | Active |  |  |  |  |  |  |  | 

Source: ChEMBL document CHEMBL4842367, “Strategies toward Discovery of Potent and Orally Bioavailable Proteolysis Targeting Chimera Degraders of Androgen Receptor for the Treatment of Prostate Cancer” (J Med Chem, 2021)
